Laboratory results from patent publication US8084596B2, “Regulated apoptosis” (The Board of Trustees of the Leland Stanford Junior …, priority 1993, dated 2011).

Target: MC3FE (murine; human) (UniProt P30412)
Assay: cell-based or functional assay

**Q.** For (CsA)2 (peptide), which LD50 for (CsA)2-mediated cell death is on record?
**A.** The LD50 for (CsA)2-mediated cell death was 200 nM.
